Experimental data taken from patent publication US20140363530A1, “COMPOSITION COMPRISING THE EXTRACT OF PINE TREE LEAF OR THE COMPOUNDS ISOLATED THEREFROM FOR THE PREVENTION AND TREATMENT OF CANCER DISEASE BY INHIBITING HPV VIRUS AND THE USES THEREBY” (priority 2012, published 2014).

What was measured:
[1] = test system: MES-SA (human uterine carcinoma); assay: SRB cytotoxicity test, MES-SA; type: cell-based
Protocol: (§1) To determine the cytotoxicity against human tumor cell line of the test samples prepared in Examples, following sulforhodamin B (SRB) bioassy test was performed according to the method disclosed in the literature (Skehan, P., et al., J. Natl. Cancer Inst., 82, 1990, 1107-1112).
(§2) Various human tumor cell lines, i.e., A-549 (human adenocarcinoma of lung, NCI), SK-OV-3 (human ovarian tumor, NCI), SK-MEL-2 (human malignant melanoma, NCI), HCT15 (human colon adenocarcinoma, NCI), MES-SA (human uterine carcinoma, NCI) and MES-SA/DX5 (multidrug resistant carcinoma subline of MES-SA, NCI) were used in the test.
(§3) The subcultured cell lines were detached from the surface of wall using by trypsin-EDTA solution and adjusted to various concentration of cell lines, i.e., 5×10^3 cells/well (A-549, HCT15), 1×10^4 cells/well (SK-MEL-2), 5×10^3 cells/well (SK-OV-3) in 96-well flat bottom microplate. The inoculated cell lines were incubated in CO2 incubator (MCO-20AIC, SANYO Electric Co., LTd.) to be attached on the bottom of incubator and the culture media was removed with aspirator. […] The cell plates were shaked with titer plate shaker (KOMA Orbital Shaker KE011, KOMABIOTech) for 10 mins to exude the staining solution and to determine the absorbance at 520 nm using by microplate spectrophotometer (Sunrise, TECAN).

[2] = test system: MES-SA/DX5 (multidrug resistant carcinoma subline of MES-SA); assay: SRB cytotoxicity test, MES-SA/DX5; type: cell-based, human; details: Table 3, 48 hours
Protocol: as §1, §2, §3

With “9,14-dihydroxytotara-7-ene-8-oic acid [compound (a)]” the “Cytotoxicity IC50, MES-SA” value [1] was 77.22 µg/mL and the “Cytotoxicity IC50, MES-SA/DX5” value [2] was 80.57 µg/mL.
